{"sequences": {"note": "By UniProt entry, the sequences of proteins in these tests, tags left out. Where a name states a change or a piece, a line headed by the entry shows the natural chain unless it says otherwise.", "UniProt P20815, whole entry": "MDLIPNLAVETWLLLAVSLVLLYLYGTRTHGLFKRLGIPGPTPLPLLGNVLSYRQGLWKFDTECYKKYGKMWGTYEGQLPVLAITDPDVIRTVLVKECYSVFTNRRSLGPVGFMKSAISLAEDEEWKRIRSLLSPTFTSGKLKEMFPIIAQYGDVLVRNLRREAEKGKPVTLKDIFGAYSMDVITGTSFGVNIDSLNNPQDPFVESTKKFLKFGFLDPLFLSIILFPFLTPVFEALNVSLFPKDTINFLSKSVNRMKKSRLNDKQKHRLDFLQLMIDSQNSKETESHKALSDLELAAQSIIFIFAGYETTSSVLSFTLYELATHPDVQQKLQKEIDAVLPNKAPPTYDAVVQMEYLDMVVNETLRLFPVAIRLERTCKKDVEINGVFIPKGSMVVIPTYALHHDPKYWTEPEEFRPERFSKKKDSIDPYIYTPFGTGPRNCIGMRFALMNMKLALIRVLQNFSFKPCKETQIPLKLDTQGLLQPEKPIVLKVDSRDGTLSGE", "UniProt P05181": "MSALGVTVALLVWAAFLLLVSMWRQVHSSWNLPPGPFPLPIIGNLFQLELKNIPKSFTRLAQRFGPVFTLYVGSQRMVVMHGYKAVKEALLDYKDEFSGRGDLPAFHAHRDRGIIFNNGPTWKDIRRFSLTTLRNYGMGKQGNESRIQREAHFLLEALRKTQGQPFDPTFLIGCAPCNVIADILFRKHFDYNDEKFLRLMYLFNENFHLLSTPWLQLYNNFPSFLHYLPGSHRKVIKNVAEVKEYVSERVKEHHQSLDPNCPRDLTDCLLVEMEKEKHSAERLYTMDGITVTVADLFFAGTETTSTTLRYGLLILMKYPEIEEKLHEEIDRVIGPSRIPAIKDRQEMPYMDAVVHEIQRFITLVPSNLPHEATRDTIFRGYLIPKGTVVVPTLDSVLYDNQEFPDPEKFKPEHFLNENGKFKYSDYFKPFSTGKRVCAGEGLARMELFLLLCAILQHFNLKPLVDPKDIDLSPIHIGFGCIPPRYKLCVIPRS", "UniProt P33261, whole entry": "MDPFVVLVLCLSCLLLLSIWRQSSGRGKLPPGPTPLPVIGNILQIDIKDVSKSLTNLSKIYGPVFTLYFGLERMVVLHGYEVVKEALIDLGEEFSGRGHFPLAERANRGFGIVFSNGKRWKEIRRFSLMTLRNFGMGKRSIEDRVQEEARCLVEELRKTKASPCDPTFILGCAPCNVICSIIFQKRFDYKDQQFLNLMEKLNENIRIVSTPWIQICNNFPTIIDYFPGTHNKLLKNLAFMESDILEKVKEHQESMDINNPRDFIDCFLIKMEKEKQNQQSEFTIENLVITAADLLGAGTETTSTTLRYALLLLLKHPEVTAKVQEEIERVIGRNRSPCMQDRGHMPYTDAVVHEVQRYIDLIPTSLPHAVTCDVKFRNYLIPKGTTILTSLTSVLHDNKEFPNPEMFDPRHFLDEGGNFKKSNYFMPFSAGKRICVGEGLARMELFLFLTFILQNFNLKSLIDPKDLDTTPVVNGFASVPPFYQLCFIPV"}, "source": "paper PMC9742833", "assay_in_all_cases": "Time-dependent inhibition (IC50 shift, NADPH pre-incubation)", "assay_type_in_all_cases": "biochemical", "parameters_in_all_cases": "purchased Life Technologies", "key": {"CYP3A5": {"molecular_target": "CYP3A5 (Homo sapiens, UniProt P20815)", "conditions": "pH 8, probe Vivid BOMCC (7-benzyloxymethyloxy-3-cyanocoumarin), shift > 2 = significant TDI"}, "CYP2E1": {"molecular_target": "CYP2E1 (Homo sapiens, UniProt P05181)", "conditions": "pH 8, probe Vivid EOMCC (ethoxymethyloxy-3-cyanocoumarin), shift > 2 = significant TDI"}, "CYP2B6": {"molecular_target": "T1, CYP2B6 (Homo sapiens, UniProt P20813)", "T1 sequence (P20813 1-491)": "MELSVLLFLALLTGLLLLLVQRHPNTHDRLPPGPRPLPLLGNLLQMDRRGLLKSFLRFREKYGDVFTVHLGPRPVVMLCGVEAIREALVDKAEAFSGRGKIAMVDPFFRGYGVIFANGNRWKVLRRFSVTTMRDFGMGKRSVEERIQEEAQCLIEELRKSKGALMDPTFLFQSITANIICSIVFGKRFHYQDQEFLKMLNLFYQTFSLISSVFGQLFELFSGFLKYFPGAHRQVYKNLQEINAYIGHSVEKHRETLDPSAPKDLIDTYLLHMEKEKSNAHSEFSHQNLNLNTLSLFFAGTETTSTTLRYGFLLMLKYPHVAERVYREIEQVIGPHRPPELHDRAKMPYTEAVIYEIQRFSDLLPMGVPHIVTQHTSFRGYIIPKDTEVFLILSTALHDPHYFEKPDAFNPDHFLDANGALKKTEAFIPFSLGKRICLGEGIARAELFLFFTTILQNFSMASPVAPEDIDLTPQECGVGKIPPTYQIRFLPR", "conditions": "pH 8, probe Vivid BOMCC (7-benzyloxymethyloxy-3-cyanocoumarin), shift > 2 = significant TDI"}, "CYP2J2": {"molecular_target": "T2, CYP2J2 (Homo sapiens, UniProt P51589)", "T2 sequence (P51589 1-502)": "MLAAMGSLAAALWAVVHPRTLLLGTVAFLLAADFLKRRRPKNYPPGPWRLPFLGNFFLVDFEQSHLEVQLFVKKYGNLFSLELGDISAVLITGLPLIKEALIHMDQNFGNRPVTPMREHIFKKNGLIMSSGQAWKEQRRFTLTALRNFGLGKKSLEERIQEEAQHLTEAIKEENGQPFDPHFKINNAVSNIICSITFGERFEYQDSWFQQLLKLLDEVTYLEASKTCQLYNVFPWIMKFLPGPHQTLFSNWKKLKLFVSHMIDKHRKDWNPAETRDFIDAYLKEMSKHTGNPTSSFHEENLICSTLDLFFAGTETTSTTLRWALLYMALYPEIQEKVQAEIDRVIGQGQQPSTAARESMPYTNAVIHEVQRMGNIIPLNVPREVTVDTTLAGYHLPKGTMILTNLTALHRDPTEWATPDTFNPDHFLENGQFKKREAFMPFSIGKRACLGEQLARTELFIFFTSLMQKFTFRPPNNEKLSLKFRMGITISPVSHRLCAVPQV", "conditions": "pH 8, probe Vivid MOBFC (7-p-methoxy-benzyloxy-4-trifluorocoumarin), shift > 2 = significant TDI"}, "CYP2C19": {"molecular_target": "CYP2C19 (Homo sapiens, UniProt P33261)", "conditions": "pH 8, probe Vivid EOMCC (ethoxymethyloxy-3-cyanocoumarin), shift > 2 = significant TDI"}, "CYP1A2": {"molecular_target": "T3, CYP1A2 (Homo sapiens, UniProt P05177)", "T3 sequence (P05177 2-516 limits assumed)": "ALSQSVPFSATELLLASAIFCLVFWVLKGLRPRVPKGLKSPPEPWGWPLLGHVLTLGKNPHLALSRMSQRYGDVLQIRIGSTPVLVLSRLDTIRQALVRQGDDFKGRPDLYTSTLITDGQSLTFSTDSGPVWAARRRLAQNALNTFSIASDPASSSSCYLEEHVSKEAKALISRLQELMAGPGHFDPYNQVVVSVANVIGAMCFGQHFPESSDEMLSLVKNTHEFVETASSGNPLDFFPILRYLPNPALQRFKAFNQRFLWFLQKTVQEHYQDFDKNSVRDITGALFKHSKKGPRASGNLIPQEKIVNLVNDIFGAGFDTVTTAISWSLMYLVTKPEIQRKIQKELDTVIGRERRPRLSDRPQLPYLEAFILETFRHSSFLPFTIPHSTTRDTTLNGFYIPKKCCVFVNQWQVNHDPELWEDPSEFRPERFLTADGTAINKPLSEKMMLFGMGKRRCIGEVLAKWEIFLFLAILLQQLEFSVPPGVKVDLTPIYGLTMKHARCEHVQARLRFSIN", "conditions": "pH 8, probe Vivid EOMCC (ethoxymethyloxy-3-cyanocoumarin), shift > 2 = significant TDI"}}, "note": "Where a name gives a salt, the structure may show the parent alone."}
{"molecule": "C[C@H](N)C(=O)c1ccccc1", "note": "[Cathinone, (S)− 2-Amino-1-phenyl-1-propanone.hydrochloride]", "values": [{"measurement": "IC50 shift at 120 min", "setting": "CYP3A5", "result": 1.8}, {"measurement": "IC50 shift at 60 min", "setting": "CYP2E1", "result": 0.73}, {"measurement": "IC50 shift at 60 min", "setting": "CYP2B6", "result": 1.5}, {"measurement": "IC50 shift at 60 min", "setting": "CYP2J2", "result": 0.84}, {"measurement": "IC50 shift at 60 min", "setting": "CYP2C19", "result": 0.53}, {"measurement": "IC50 shift at 60 min", "setting": "CYP1A2", "result": 0.23}]}
